Data: ChEMBL document CHEMBL2385080, “Designing bifunctional NOP receptor-mu opioid receptor ligands from NOP receptor-selective scaffolds. Part I” (2013)

Protein sequences, listed by entry. Tags and fused reporters are not part of them.
UniProt P41146, whole entry: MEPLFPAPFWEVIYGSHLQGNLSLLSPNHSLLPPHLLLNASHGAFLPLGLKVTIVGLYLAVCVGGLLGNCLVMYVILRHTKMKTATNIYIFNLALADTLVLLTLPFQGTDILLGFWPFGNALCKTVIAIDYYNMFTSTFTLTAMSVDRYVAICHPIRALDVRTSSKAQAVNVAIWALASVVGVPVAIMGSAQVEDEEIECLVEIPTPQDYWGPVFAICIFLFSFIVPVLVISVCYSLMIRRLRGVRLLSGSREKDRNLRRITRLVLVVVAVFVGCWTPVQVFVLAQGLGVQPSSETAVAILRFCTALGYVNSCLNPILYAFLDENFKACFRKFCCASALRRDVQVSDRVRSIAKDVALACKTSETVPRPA
UniProt P41145, whole entry: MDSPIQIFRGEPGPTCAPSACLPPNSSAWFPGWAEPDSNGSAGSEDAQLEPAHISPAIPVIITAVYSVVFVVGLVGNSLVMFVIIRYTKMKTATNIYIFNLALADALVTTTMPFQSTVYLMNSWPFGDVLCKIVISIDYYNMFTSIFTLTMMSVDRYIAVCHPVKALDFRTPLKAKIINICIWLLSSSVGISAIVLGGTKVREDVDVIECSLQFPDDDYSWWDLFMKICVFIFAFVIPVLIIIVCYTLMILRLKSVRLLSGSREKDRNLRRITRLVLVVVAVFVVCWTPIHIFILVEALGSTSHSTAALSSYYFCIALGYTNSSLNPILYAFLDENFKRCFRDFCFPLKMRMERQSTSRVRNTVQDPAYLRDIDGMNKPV
UniProt P35372, whole entry: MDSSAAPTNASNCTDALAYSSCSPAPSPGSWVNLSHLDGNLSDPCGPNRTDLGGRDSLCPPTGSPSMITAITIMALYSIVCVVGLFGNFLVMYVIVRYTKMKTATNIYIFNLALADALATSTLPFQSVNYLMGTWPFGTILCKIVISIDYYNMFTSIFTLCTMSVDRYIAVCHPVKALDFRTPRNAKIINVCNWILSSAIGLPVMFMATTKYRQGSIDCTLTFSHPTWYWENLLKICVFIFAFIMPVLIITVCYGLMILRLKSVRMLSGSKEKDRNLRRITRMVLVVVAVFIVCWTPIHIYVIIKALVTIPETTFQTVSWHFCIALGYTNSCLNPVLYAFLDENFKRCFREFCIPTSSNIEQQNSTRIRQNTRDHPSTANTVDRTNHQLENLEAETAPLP

Columns and labels:
[1] = target: Nociceptin receptor (Homo sapiens) (UniProt P41146); assay: Agonist activity at human nociceptin receptor transfected in CHO cells assessed as stimulation of [35S]GTPgammaS binding by liquid scintillation counting analysis relative to control
[2] = target: Kappa-type opioid receptor (Homo sapiens) (UniProt P41145); assay: Agonist activity at human kappa opioid receptor transfected in CHO cells assessed as stimulation of [35S]GTPgammaS binding by liquid scintillation counting analysis relative to control
[3] = target: Mu-type opioid receptor (Homo sapiens) (UniProt P35372); assay: Agonist activity at human mu opioid receptor transfected in CHO cells assessed as stimulation of [35S]GTPgammaS binding by liquid scintillation counting analysis relative to control
Homo sapiens [4] = species: Homo sapiens; assay: Selectivity for human nociceptin receptor over human mu opioid receptor
Homo sapiens [5] = species: Homo sapiens; assay: Selectivity for human nociceptin receptor over human delta opioid receptor
Homo sapiens [6] = species: Homo sapiens; assay: Selectivity for human nociceptin receptor over human kappa opioid receptor

Row | Compound | Activity [1] [%] | Activity [2] [%] | Activity [3] [%] | Selectivity ratio (Homo sapiens [4]) | Selectivity ratio (Homo sapiens [5]) | Selectivity ratio (Homo sapiens [6])
1 | CC(c1ccccc1)N1CCC(N2C(=O)Cc3ccccc32)CC1 (stereo unspecified) | 76 | 37.5 | – | – | – | –
2 | CCC1C(=O)N(C2CCN(C3CCCCCCC3)CC2)c2ccccc21 (stereo unspecified) | 62 | – | 63 | – | – | –
3 | O=C1Cc2ccccc2N1C1CCN(C2CC[C@H]3CCCc4cccc2c43)CC1 (stereo partly specified) | 107 | – | 18 | – | – | –
4 | O=C1Cc2ccccc2N1C1CCN(C2CCCCCCC2)CC1 | 54 | 38 | 23.4 | – | – | –
5 | CC1CC(=O)N(C2CCN(C3CCCCCCC3)CC2)c2ccccc21 (stereo unspecified) | 38 | – | 59 | – | – | –
6 | CCC[C@H]1CC[C@@H](N2CCC(N3C(=O)Cc4ccccc43)CC2)CC1 | 62 | – | 28 | – | – | –
7 | CCC1C(=O)N(C2CCN([C@H]3CC[C@@H](C(C)C)CC3)CC2)c2ccccc21 (stereo partly specified) | 95 | – | 44 | – | – | –
8 | CC(C1CCCCC1)N1CCC(N2C(=O)Cc3ccccc32)CC1 (stereo unspecified) | 60 | 48 | 80.5 | – | – | –
9 | O=C1CCc2ccccc2N1C1CCN(C2CCCCCCC2)CC1 | 32 | – | – | – | – | –
10 | O=C1NCN(c2ccccc2)C12CCN([C@H]1CC[C@@H]3CCCc4cccc1c43)CC2 | – | – | – | 100 | 100 | 100
11 | CCC(C)(C)[C@H]1CC[C@@H](N2CCC(N3C(=O)Cc4ccccc43)CC2)CC1 | 18.5 | – | 39 | – | – | –
12 | O=C1Cc2ccccc2N1C1CCN(C2C3CCCC2CCC3)CC1 (stereo unspecified) | 45 | – | 30 | – | – | –
13 | O=C1Cc2ccccc2N1C1CCN(Cc2ccccc2)CC1 | 18 | – | 36 | – | – | –
14 | CC(C)C1CCC(N2CCC(N3C(=O)CCc4ccccc43)CC2)CC1 (stereo unspecified) | 75 | – | 50 | – | – | –
15 | CC1C(=O)N(C2CCN(C3CCCCCCC3)CC2)c2ccccc21 (stereo unspecified) | 40 | – | 53.2 | – | – | –
16 | CC(C)C1CCC(N2CCC(N3C(=O)Cc4ccccc43)CC2)CC1 (stereo unspecified) | 100 | – | 49 | – | – | –
17 | CC1C(=O)N(C2CCN([C@H]3CC[C@@H](C(C)C)CC3)CC2)c2ccccc21 (stereo partly specified) | 100 | – | 84.3 | – | – | –
